Assay results: US20170217976A1, “6-(AMINO ACID)-MORPHINAN DERIVATIVES IN COMBINATION WITH PERMEATION […] FOR USE AS AN ORALLY, […], TRA[…] NASALLY AD[…]” (C[…], priority 2014, published 2017)

The chains behind the UniProt entries cited, without tags or fusion partners. Where a name states a change or a piece, a line headed by the entry shows the natural chain unless it says otherwise.
UniProt P41144: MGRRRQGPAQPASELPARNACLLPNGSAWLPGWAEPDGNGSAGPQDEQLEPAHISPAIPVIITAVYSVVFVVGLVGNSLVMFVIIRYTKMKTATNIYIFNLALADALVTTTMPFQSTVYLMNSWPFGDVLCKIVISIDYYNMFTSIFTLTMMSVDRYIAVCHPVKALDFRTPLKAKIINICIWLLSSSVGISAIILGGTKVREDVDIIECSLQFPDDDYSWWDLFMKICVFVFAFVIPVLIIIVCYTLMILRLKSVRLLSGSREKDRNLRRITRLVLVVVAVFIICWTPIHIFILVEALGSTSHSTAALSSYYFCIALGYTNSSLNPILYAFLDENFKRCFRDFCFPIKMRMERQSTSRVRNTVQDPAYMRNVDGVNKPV
UniProt P33535, whole entry: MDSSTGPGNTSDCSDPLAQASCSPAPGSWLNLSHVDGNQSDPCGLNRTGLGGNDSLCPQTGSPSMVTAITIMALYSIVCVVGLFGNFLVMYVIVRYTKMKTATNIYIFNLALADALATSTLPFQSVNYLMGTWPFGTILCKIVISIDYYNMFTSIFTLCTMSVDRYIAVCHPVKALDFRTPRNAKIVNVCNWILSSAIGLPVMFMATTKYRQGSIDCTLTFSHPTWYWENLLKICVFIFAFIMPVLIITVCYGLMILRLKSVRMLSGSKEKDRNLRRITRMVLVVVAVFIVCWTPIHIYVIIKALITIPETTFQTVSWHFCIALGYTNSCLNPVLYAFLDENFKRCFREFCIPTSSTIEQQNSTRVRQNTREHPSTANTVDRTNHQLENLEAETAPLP

Assays:
KOR = biological target: T1, KOR (Cavia porcellus, UniProt P41144); test: Opioid receptor binding, KOR, guinea pig brain membranes; conditions: in vitro binding assay
T1 construct: from tissue

MOR = biological target: T2, MOR (Rattus norvegicus, UniProt P33535); test: Opioid receptor binding, MOR, rat brain membranes; conditions: Table 1-4, rat brain membranes
T2 construct: from tissue

| SMILES | Ki (KOR) | Ki (MOR) |
| --- | --- | --- |
| CO[C@@]12CC[C@H](NCC(=O)O)[C@@H]3Oc4c(O)ccc5c4[C@@]31CCN(C)[C@@H]2C5 [HS730] | 43.2 nM | 0.89 nM |
| CCO.CO[C@@]12CC[C@@H](NCC(=O)O)[C@@H]3Oc4c(O)ccc5c4[C@@]31CCN(C)[C@@H]2C5.Cl.Cl.O [HS731, 2-[(4,5α-EPOXY-3-HYDROXY-14β-METHOXY-17-METHYLMORPHINAN-6β-YL)AMINO]ACETIC ACID DIHYDROCHLORIDE HYDRATE ETHANOLATE] | 44.8 nM |  |
